Values quoted from earlier work as cited in patent US20040186052A1, “Cytomodulating peptides and methods for treating neurological disorders” (priority 2002, published 2004).

Legend:
PC12 cells = conditions: cited from earlier work
ALS = conditions: in vivo; cited from earlier work

| Compound | cell death (PC12 cells) | extension of survival (ALS) |
| --- | --- | --- |
| O=[N+]([O-])c1ccc(-c2nc(-c3ccncc3)c(-c3ccc(F)cc3)[nH]2)cc1 [PD169316] | inhibited | – |
| Nc1nc2ccc(OC(F)(F)F)cc2s1 [riluzole] | – | less than a year |
